This is a selection; strong and weak results do not stand in their true shares. Calls of active or inactive are those of the source.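 Rule for the calls: active = compounds that cut the binding signal by more than half at the single screening dose; inactive = the rest.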

Amino acid sequences for entries named in this document (tags omitted).
UniProt Q07820, whole entry: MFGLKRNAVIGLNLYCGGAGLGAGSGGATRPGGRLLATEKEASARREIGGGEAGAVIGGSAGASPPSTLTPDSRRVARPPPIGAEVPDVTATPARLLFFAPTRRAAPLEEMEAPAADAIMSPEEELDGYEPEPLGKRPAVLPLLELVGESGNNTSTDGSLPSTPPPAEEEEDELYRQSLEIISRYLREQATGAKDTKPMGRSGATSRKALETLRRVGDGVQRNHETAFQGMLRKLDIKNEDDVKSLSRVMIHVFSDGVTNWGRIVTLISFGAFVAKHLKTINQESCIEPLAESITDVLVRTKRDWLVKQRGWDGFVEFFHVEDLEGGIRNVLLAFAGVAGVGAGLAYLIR

What is called inhibition is the relative decrease from the control value, in per cent.

The target in the assay is Induced myeloid leukemia cell differentiation protein Mcl-1 (Homo sapiens) (UniProt Q07820). In words: disruptors of Mcl-1 and Bid BH3 peptide – biochemical, TR-FRET, 1536-well, primary screen (AID 1021).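 Note: His-tagged Mcl-1 with europium anti-His antibody binding Bid BH3 peptide; 0% = Mcl-1 plus peptide wells and 100% = peptide-only wells.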 The settings on record: TR-FRET Mcl-1/Bid-Dy647 peptide binding, at 21.7 µM, stronger effect = higher value. Background: In TR-FRET formats the signal depends on donor and acceptor labels being close together.
In the case of `Cc1ccc(OCC(C)C)c(CN(CCCl)CCCl)c1`, the inhibition is active: 84.1%.

In the case of `CCOc1ccc(C)cc1CN(CCCl)CCCl`, the inhibition was inactive: 17.3%.

Turning to `COc1ccc(NC2CCN(CCc3ccccc3)CC2)c(OC)c1`, the inhibition was inactive: 16.5%.

As for `O=C(NCC1(N2CCOCC2)CCCCC1)c1cc2ccccc2o1`, the inhibition was inactive: -12.5%.

For the compound `CCOC(=O)N1CCC(Nc2ccc(OC)cc2)CC1`, the inhibition was inactive: -43.9%.

In the case of `O=C(OC1CN2CCC1CC2)C1c2ccccc2Oc2ccccc21` (centres undefined), the inhibition was inactive: -9.72%.

With `N#CC1(Nc2ccccc2)CCN(Cc2ccccc2)CC1`, the inhibition was inactive: -2.14%.

Consider `COc1ccc(C(=O)NCC2(N3CCCCC3)CCCCC2)c(OC)c1OC`, for which the inhibition was inactive: -3.06%.

Regarding `COc1ccc(CN(CCCl)CCCl)cc1Cl`, the inhibition was inactive: 16.9%.

On to `CN(C)c1cccc(C(=O)NCC2(N3CCCCC3)CCCCC2)c1`, for which the inhibition was inactive: -66%.

As to `CC(C)c1ccc(NC2CCN(C(=O)OC(C)(C)C)CC2)cc1`, the inhibition is inactive: -37%.

With `COc1ccc(NC2CCN(C(=O)OC(C)(C)C)CC2)cc1`, the inhibition is inactive: -74.6%.

Turning to `CN1CCN(CCOC(=O)C(O)(c2ccccc2)c2ccccc2)CC1`, the inhibition was inactive: -22.4%.

Turning to `O=C(NCC1(N2CCOCC2)CCCCC1)c1cc(=O)[nH]c2ccccc12`, the inhibition was inactive: -2.29%.

For the compound `O=C(NCC1(N2CCCCC2)CCCCC1)c1cccc([N+](=O)[O-])c1`, the inhibition was inactive: -28.9%.

Regarding `N#CC1(Nc2ccccc2)CCN(CCc2ccccc2)CC1`, the inhibition was inactive: -27.5%.

Turning to `c1ccc(CN2CCC(Nc3ccccc3)CC2)cc1`, the inhibition was inactive: -37.5%.

Turning to `N#Cc1ccc(C(=O)NCC2(N3CCCCC3)CCCCC2)cc1`, the inhibition was inactive: -5.73%.

Regarding `N/C(=N\O)c1c(N)no[n+]1[O-]`, the inhibition was inactive: -12.1%.

With `O=C(OC1CN2CCC1CC2)C1c2ccccc2C=Cc2ccccc21` (centres undefined), the inhibition is inactive: -19.8%.

Turning to `COc1ccc(C(=O)NCC2(N3CCOCC3)CCCCC2)cc1OC`, the inhibition is inactive: -2.54%.

As to `CCC(CO)(C(=O)OC1CN2CCC1CC2)c1ccccc1` (centres undefined), the inhibition was inactive: 1.38%.

In the case of `COc1cc(OC)cc(C(=O)NCC2(N3CCOCC3)CCCCC2)c1`, the inhibition is inactive: -9.84%.

Turning to `CCCOc1ccc(C)cc1CN(CCCl)CCCl`, the inhibition was inactive: -0.33%.

For the compound `CCOc1ncccc1C(=O)NCC1(N2CCOCC2)CCCCC1`, the inhibition was inactive: -14.4%.

Take `CC(C)(C)OC(=O)N1CCC(Nc2ccccc2)CC1`: the inhibition is inactive: -40.6%.

As for `CCN1CCC(Nc2cccc(F)c2)CC1`, the inhibition is inactive: 30.7%.

On to `CN(C)c1ccc(C(=O)NCC2(N3CCCCC3)CCCCC2)cc1`, for which the inhibition was inactive: -42.8%.

Turning to `Fc1ccccc1NC1CCN(Cc2ccccc2)CC1`, the inhibition is inactive: 32.9%.

For the origin of these results see PubChem BioAssay AID1021 (Emory University Molecular Libraries Screening Center, 2008).
